Reference: patent US20160030407A1, “Method of Treating Inflammatory Lung Disease” (priority 2010, published 2016)
Where two headings read alike, the source gives them in different places.

By UniProt entry, the sequences of proteins in these tests, tags left out. Residues count along the entry.
UniProt P30926, 22-498: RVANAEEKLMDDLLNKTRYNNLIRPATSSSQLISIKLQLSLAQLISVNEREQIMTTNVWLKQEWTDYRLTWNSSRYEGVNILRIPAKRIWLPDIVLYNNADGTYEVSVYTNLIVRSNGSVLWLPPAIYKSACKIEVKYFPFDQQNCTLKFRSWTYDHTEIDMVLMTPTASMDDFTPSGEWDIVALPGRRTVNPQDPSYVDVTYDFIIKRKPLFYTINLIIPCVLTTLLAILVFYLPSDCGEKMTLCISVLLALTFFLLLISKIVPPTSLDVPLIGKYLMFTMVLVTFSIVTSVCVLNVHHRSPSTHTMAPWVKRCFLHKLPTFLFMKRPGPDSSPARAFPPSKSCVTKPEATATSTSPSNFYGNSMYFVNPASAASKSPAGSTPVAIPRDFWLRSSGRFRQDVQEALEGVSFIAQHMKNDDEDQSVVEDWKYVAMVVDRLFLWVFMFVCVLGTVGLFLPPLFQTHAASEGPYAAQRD
UniProt P32297, 32-505: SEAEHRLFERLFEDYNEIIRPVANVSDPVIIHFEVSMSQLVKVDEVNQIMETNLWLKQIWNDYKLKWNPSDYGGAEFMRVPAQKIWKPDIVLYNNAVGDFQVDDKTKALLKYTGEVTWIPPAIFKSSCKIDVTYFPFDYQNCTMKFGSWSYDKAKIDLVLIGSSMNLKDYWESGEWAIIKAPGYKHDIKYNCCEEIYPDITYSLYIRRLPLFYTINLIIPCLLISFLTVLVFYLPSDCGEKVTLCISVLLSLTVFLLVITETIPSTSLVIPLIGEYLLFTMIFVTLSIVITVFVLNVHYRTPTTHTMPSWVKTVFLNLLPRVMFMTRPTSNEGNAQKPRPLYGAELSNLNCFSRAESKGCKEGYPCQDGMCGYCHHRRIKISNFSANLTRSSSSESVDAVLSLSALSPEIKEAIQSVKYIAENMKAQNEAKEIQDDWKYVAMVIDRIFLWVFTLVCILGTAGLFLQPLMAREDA
UniProt P36544, 23-502: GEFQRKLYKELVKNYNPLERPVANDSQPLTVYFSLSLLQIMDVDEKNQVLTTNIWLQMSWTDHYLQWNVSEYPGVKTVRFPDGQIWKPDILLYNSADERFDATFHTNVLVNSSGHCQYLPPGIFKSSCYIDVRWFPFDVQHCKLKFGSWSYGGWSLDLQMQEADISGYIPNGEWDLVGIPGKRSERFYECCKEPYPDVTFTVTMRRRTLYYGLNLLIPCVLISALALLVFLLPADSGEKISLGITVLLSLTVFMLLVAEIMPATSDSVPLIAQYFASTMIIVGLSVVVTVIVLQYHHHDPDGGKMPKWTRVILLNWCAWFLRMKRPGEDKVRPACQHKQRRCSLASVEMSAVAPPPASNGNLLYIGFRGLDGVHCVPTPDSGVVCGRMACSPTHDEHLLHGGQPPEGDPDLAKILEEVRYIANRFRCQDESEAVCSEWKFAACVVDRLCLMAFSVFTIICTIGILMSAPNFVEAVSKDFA
UniProt P17787, 26-502: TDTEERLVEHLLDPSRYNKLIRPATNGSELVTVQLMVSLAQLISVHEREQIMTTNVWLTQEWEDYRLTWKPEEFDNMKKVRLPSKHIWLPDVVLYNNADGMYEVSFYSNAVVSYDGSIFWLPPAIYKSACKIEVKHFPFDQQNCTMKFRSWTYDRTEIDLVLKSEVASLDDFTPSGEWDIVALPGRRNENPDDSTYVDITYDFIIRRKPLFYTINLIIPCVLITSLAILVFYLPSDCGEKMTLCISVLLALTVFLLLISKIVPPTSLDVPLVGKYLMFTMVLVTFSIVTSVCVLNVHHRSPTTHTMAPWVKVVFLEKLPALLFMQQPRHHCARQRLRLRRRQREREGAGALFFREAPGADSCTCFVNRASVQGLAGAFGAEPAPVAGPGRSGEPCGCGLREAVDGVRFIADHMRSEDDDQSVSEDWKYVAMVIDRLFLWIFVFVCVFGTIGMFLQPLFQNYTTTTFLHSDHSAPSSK
UniProt P43681, 29-627: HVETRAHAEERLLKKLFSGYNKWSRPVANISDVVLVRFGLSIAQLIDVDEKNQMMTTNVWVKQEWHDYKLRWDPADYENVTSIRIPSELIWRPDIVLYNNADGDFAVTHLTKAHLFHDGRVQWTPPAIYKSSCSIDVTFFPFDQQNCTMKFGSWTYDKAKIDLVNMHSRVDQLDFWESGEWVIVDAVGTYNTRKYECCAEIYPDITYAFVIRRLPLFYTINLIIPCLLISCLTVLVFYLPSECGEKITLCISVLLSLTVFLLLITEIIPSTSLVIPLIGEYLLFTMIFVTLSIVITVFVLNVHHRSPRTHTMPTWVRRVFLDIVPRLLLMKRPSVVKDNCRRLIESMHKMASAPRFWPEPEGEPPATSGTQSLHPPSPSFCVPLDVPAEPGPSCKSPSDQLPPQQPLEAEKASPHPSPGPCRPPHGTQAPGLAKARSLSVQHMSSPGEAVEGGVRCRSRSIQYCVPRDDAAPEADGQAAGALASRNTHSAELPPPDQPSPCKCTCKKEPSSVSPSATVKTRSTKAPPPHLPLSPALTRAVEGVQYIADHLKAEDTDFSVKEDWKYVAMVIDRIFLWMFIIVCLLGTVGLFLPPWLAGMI

How the values were obtained:
[1] = target: T1, nAChR α3/β4 (Homo sapiens, UniProt P30926+P32297); assay type: cell-based; settings: with 10 μM Ach, 100% = 10 μM Ach+1 μM epibatidine, 0% = 10 μM Ach
Procedure: (§1) Briefly, cells were incubated with […] dye for 30 min at 37° C.

[2] = target: T2, nAChR α7 (Homo sapiens, UniProt P36544); assay: nAChR α7 channel antagonist assay (FLIPR); assay type: cell-based; settings: with 300 μM Ach+10 μM PNU-120596, control antagonist 10 μM MLA, read-out: Normalized % Inhibition
T2 construct: host or cells: CHO cells coexpressing RIC-3
Procedure: as §1
Inhibition was not concentration-dependent and the IC50s could not be determined for either test article.

[3] = target: T3, nAChR α4/β2 (Homo sapiens, UniProt P17787+P43681); assay: cell-based; settings: read-out: Normalized % Inhibition
T3 construct: host or cells: HEK293 cells, transient
Procedure: as §1

[4] = target: T1, nAChR α3/β4; assay: cell-based; settings: read-out: Normalized % Inhibition
Procedure: as §1

[5] = target: T2, nAChR α7; assay: nAChR α7 channel agonist assay (FLIPR); assay type: cell-based; settings: in presence of PNU-120596, 100% = 30 μM Ach+10 μM PNU-120596, 0% = HBPS
Procedure: as §1
In the absence of PNU-120596, the nAChR α7 receptor became desensitized very quickly before any agonist effect of Ach could be observed. Therefore, the assay of agonist activity for either Ach or for the test articles was conducted in the presence of the positive allosteric modulator.

[6] = target: T3, nAChR α4/β2; assay: nAChR α4/β2 channel agonist assay (FLIPR); assay type: cell-based; settings: 100% = 30 μM Ach, 0% = HBPS
Procedure: as §1

[7] = target: T1, nAChR α3/β4; assay: nAChR α3/β4 channel agonist assay (FLIPR); assay type: cell-based; settings: 100% = 30 μM Ach, 0% = HBPS
Procedure: as §1

[8] = target: T2, nAChR α7; assay: nAChR α7 channel positive allosteric modulator assay (FLIPR); assay type: cell-based; settings: with 30 μM Ach, 100% = 30 μM Ach+10 μM PNU-120596, 0% = 30 μM Ach, read-out: Normalized % Potentiation
Procedure: as §1
Neither test article potentiated the activity of the nAChR α7 receptor.

[9] = Single i.v. dose toxicity: coagulation (aPTT, PT); assay type: in vivo, Sprague-Dawley rats; settings: nicotine 0.75 mg/kg single i.v. dose; male rats; individual animals E1, E2, E3, E5; tartrate
From the text: On day 15, urine was collected on all surviving animals for urinalysis. The animals were euthanized and bled via cardiac puncture. Blood was collected for hematology, clinical chemistry, and coagulation analysis. Tissues were collected, weighed, and stored in 10% neutral-buffered formalin for possible future analysis.

CN1CCCC1c1cccnc1.O=C(O)C(O)C(O)C(=O)O (single isomer, unassigned; (-)) [Nicotine, (−) Nicotine hydrogen tartrate]
Normalized % Potentiation ([1]; test conc 0.3 μM): −1.23%
Normalized % Potentiation ([1]; test conc 1 μM): −1.19%
Normalized % Potentiation ([1]; test conc 3 μM): −3.92%
Normalized % Potentiation ([1]; test conc 10 μM): −5.67%
Normalized % Potentiation ([1]; test conc 30 μM): −9.28%
Normalized % Potentiation ([1]; test conc 100 μM): −9.72%
Normalized % Potentiation ([1]; test conc 300 μM): −8.45%
Normalized % Potentiation ([1]; test conc 1000 μM): −9.57%
inhibition at 0.3 µM ([2]; test conc 0.3 μm): 2.78%
inhibition at 1 µM ([2]; test conc 1 μm): 11.8%
inhibition at 3 µM ([2]; test conc 3 μm): 41.2%
inhibition at 10 µM ([2]; test conc 10 μm): 32.5%
inhibition at 30 µM ([2]; test conc 30 μm): 39.2%
inhibition at 100 µM ([2]; test conc 100 μm): 18.6%
inhibition at 300 µM ([2]; test conc 300 μm): 14.1%
inhibition at 1000 µM ([2]; test conc 1000 μm): -37%
inhibition at 0.3 µM [3]: 85.9%
inhibition at 3 µM [3]: 85.7%
inhibition at 10 µM [3]: 109%
inhibition at 30 µM [3]: 107%
inhibition at 100 µM [3]: 91.9%
inhibition at 300 µM [3]: 95.3%
inhibition at 1000 µM [3]: 108%
inhibition at 3 µM [4]: 37.8%
Normalized % Activation ([5]; test conc 0.3 μm): −1.03%
Normalized % Activation ([5]; test conc 1 μm): 0.15%
Normalized % Activation ([5]; test conc 3 μm): 0.72%
Normalized % Activation ([5]; test conc 10 μm): 2.44%
Normalized % Activation ([5]; test conc 30 μm): 5.19%
Normalized % Activation ([5]; test conc 100 μm): 11.60%
Normalized % Activation ([5]; test conc 300 μm): 27.93%
Normalized % Activation ([5]; test conc 1000 μm): 48.47%
Normalized % Activation ([6]; test conc 0.3 μM): 16.27%
Normalized % Activation ([6]; test conc 1 μM): 34.05%
Normalized % Activation ([6]; test conc 3 μM): 61.88%
Normalized % Activation ([6]; test conc 10 μM): 74.31%
Normalized % Activation ([6]; test conc 30 μM): 75.53%
Normalized % Activation ([6]; test conc 100 μM): 71.02%
Normalized % Activation ([6]; test conc 300 μM): 58.23%
Normalized % Activation ([6]; test conc 1000 μM): 57.05%
Normalized % Activation ([7]; test conc 0.3 μM): 0.94%
Normalized % Activation ([7]; test conc 1 μM): −1.28%
Normalized % Activation ([7]; test conc 3 μM): 1.11%
Normalized % Activation ([7]; test conc 10 μM): 38.17%
Normalized % Activation ([7]; test conc 30 μM): 122.59%
Normalized % Activation ([7]; test conc 100 μM): 201.50%
Normalized % Activation ([7]; test conc 300 μM): 264.77%
Normalized % Activation ([7]; test conc 1000 μM): 208.23%
activation at 0.3 µM ([8]; test conc 0.3 μm): -0.95%
activation at 1 µM ([8]; test conc 1 μm): -1.03%
activation at 3 µM ([8]; test conc 3 μm): -0.81%
activation at 10 µM ([8]; test conc 10 μm): -0.61%
activation at 30 µM ([8]; test conc 30 μm): -0.47%
activation at 100 µM ([8]; test conc 100 μm): -0.46%
activation at 300 µM ([8]; test conc 300 μm): -0.34%
activation at 1000 µM ([8]; test conc 1000 μm): -0.51%
P[…] [9]: 13 s
